Among the data in patent publication US20070025968A1, “Methods for selecting and producing T cell peptide epitopes and vaccines incorporating said selected epitopes” (priority 1996, published 2007) are IC50 values, retold here.

One test has as its target HLA-A*0201 (Homo sapiens, UniProt P04439, D140Y/D185E/D98H/E176V/E277Q/G131W/G231S/I119V/I121R/I166T/I218V/L300P/L318F/N151K/N90K/P208A/P217A/Q86G/Q94H/R138H/R169H/T345S). As to the kind of experiment: cell-based. Particulars: Affinity IC50 (μM), Table VI; known CTL epitopes.
The target in another test is HLA-A*0301 (Homo sapiens, UniProt P04439). As to the kind of experiment: HLA class I peptide-binding competition assay on intact human B cells (EKR), FL-labeled reference peptide. To be noted: IC50 (μM) competition assay.

Broadly, the IC50 is the concentration that gives 50% inhibition. Read a high IC50 as weaker potency.

`CC[C@H](C)[C@H](NC(=O)[C@H](Cc1ccc(O)cc1)NC(=O)CNC(=O)[C@H](CCSC)NC(=O)[C@H](CC(C)C)NC(=O)[C@@H](N)CC(=O)O)C(=O)N1CCC[C@H]1C(=O)N[C@@H](CC(C)C)C(=O)N[C@H](C(=O)O)C(C)C` [reference compound] had a half-maximal inhibitory concentration (IC50) against HLA-A*0201 of 5 µM.
For `CSCC[C@H](NC(=O)[C@H](C)N)C(=O)N[C@@H](CO)C(=O)N[C@@H](C)C(=O)N[C@@H](C)C(=O)N[C@@H](CCCNC(=N)N)C(=O)N[C@@H](CO)C(=O)N[C@@H](CO)C(=O)N[C@@H](CCCNC(=N)N)C(=O)O`, the concentration for half-maximal inhibition (IC50) was found to be 4 µM on HLA-A*0301 (4° C., 24 hr); 6 µM on HLA-A*0301 (26° C., 3 hr); 7 µM at HLA-A*0301 (26° C., 24 hr).
